{"sequences": {"note": "The chains behind the UniProt entries cited, without tags or fusion partners.", "UniProt P08172, whole entry": "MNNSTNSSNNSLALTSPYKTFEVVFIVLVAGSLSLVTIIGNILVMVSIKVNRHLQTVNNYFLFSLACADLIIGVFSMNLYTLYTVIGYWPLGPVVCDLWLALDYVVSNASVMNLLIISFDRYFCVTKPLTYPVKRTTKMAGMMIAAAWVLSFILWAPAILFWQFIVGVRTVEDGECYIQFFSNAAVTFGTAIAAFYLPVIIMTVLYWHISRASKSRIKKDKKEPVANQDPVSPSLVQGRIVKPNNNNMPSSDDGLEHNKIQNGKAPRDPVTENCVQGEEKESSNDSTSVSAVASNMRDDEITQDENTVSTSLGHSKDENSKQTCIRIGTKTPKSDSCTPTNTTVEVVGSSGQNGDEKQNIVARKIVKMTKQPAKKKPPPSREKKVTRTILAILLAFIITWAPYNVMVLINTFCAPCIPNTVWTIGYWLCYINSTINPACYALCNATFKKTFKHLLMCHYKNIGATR"}, "source": "ChEMBL document CHEMBL1132230", "about": "“1-(1,2,5-Thiadiazol-4-yl)-4-azatricyclo[2.2.1.0(2,6)]heptanes as new potent muscarinic M1 agonists: structure-activity relationship for 3-aryl-2-propyn-1-yloxy and 3-aryl-2-propyn-1-ylthio derivatives” (J Med Chem, 1999)", "biological_target": "Muscarinic acetylcholine receptor M2 (Homo sapiens, UniProt P08172)", "experiment": "Compound was tested for its potency towards Muscarinic acetylcholine receptor M2 by inhibiting forskolin induced c-AMP formation in CHO-M2 cells", "format": "functional, cell-based", "summary_of_the_method": "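Human M2 receptor plasmid transfected into CHO cells […], cultured in DMEM/10% FBS with 1 μM atropine and 1 μM methotrexate; atropine-free medium overnight before assay. Cells detached with PBS + 1 mM EDTA, washed into DMEM + 20 mM HEPES pH 7.4 + 0.5 mM IBMX, preincubated 30 min at 0 °C. Forskolin 10 μM final, 10 min at 37 °C; ethanol stop; cAMP by radioimmunoassay.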", "data": [{"smiles": "CCCCCCOc1nsnc1C1=CCCN(C)C1", "note": "[XANOMELINE]", "values": [{"measurement": "EC50", "value": 398, "unit": "nM"}]}]}
